Laboratory results: ChEMBL document CHEMBL1148420, “Identification and synthesis of [1,2,4]triazolo[3,4-a]phthalazine derivatives as high-affinity ligands to the alpha 2 delta-1 subunit of voltage gated calcium channel” (Bioorg Med Chem Lett, 2004)

Protein sequences, listed by entry. Tags and fused reporters are not part of them. Residues count along the entry.
UniProt P54289, 957-1103 limits assumed: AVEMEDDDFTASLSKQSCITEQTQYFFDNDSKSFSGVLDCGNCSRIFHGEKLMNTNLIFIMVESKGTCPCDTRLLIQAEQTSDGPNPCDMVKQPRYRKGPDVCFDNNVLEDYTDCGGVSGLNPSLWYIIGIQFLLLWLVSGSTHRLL
UniProt P54289, 25-956 limits assumed: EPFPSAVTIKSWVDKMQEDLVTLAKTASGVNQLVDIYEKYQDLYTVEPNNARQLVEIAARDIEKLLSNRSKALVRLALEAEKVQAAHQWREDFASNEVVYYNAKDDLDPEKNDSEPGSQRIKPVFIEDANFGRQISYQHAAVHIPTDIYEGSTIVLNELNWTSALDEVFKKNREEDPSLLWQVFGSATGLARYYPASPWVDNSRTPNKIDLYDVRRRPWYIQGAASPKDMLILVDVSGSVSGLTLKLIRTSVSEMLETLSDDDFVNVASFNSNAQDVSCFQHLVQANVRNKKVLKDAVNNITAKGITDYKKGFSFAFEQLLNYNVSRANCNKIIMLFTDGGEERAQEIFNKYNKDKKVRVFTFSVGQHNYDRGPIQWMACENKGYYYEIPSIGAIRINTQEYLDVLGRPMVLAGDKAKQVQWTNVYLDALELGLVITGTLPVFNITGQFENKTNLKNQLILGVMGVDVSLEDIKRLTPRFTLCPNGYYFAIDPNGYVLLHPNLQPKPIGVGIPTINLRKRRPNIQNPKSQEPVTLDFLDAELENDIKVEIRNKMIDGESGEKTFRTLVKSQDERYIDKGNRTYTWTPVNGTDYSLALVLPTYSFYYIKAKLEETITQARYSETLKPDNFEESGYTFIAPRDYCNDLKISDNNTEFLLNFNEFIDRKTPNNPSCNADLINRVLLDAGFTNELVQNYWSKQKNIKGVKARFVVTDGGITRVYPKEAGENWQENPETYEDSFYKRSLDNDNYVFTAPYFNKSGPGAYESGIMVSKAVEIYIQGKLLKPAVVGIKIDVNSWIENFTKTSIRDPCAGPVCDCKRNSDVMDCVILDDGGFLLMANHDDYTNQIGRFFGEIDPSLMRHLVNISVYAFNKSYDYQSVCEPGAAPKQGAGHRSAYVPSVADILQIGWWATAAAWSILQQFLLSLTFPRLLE

Target: Voltage-dependent calcium channel subunit alpha-2/delta-1 (Homo sapiens, UniProt P54289)
Assay: Binding affinity against alpha-2 delta-1 subunit of voltage gated subunit of Ca+2 channel in human
Outline: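 [3H]gabapentin displacement binding on A710 membranes (HEK 293 cells stably transfected with human α1B, β3a and α2δ-1b subunits), following a literature method.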

For `COc1ccccc1CCNCc1cccc(COc2nn3c(C(F)(F)F)nnc3c3ccccc23)n1`, which IC50 is on record?
Its IC50 is 3.16 µM.
